This is an account of results in paper PMC6899459 (Chemmedchem, 2019).

By UniProt entry, the sequences of proteins in these tests, tags left out.
UniProt Q92847, whole entry: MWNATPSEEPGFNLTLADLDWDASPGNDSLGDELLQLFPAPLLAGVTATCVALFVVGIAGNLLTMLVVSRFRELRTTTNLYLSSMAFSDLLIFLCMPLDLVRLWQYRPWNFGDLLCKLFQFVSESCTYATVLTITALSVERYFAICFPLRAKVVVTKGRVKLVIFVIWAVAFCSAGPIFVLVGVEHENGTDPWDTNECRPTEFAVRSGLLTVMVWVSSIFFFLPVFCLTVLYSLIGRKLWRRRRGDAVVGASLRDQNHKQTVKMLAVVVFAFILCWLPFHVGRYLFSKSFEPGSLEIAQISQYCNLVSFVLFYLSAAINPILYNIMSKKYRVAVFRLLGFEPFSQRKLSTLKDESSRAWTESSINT

In the assay the target is ghrelin receptor (Homo sapiens, UniProt Q92847). The assay can be described thus: IP-One assay. The format is cell-based. The settings on record: SEM.

SMILES strings stand for the structures.

In general, EC50 refers to the midpoint of the concentration-response curve. In turn, `CC(C)C[C@H](NC(=O)[C@H](CC(C)C)NC(=O)[C@@H](Cc1c[nH]c2ccccc12)NC(=O)[C@H](Cc1ccccc1)NC(=O)[C@@H](NC(=O)[C@@H](N)CCCCN)[C@H](c1ccccc1)c1c[nH]c2ccccc12)C(N)=O` [Peptide 9, K‐Wrf‐FwLL‐NH2] gave an EC50 of 479 nM. `CC(C)C[C@H](NC(=O)[C@H](CC(C)C)NC(=O)[C@@H](Cc1c[nH]c2ccccc12)NC(=O)[C@H](Cc1ccccc1)NC(=O)[C@@H](NC(=O)[C@@H](N)CCCCN)[C@@H](c1ccccc1)c1c[nH]c2ccccc12)C(N)=O` [Peptide 10, K‐Wsf‐FwLL‐NH2]: the response was half-maximal at 407 nM (EC50).
